{"source": "paper PMC3679732", "about": "“Cloning and characterization of bifunctional enzyme farnesyl diphosphate/geranylgeranyl diphosphate synthase from Plasmodium falciparum” (Malaria Journal, 2013)", "molecular_target": "T1, farnesyl diphosphate/geranylgeranyl diphosphate synthase (rPfFPPS) (Plasmodium falciparum, UniProt Q8II79)", "T1 construct": "gene PF3D7_1128400", "T1 sequence (Q8II79 1-376)": "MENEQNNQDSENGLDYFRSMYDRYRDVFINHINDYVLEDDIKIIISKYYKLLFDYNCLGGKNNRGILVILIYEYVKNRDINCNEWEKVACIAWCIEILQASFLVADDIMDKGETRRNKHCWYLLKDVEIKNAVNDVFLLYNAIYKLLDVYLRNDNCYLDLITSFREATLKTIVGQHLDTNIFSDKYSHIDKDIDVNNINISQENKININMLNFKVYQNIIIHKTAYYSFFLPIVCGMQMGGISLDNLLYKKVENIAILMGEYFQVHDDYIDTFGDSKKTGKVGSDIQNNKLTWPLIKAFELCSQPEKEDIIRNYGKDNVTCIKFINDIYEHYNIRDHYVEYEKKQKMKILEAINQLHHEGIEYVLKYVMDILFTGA", "test": "biochemical", "data": [{"smiles": "O=P(O)(O)C(O)(Cc1cccnc1)P(=O)(O)O", "note": "[risedronate]", "values": [{"measurement": "IC50", "value": "1.3 ± 0.2", "unit": "µM"}]}]}
